Assay results: patent US20140066438A1, “DOPAMINE RECEPTOR D2 ANTAGONIST FOR PREVENTION AND TREATMENT OF FLAVIVIRUS INFECTION” (Academia Sinica, priority 2012, published 2014)

Tested on: HEK293T cells
Experiment: Drug cytotoxicity assays (AlamarBlue, XTT, LDH)
Assay type: cell-based, human
Conditions: PCZ up to 25 μM, 24 h
Experimental: (A) PCZ cytotoxicity test. HEK293T cells were treated with solvent control or the indicated concentrations of PCZ for 24 h. AlamarBlue, XTT, and LDH assays were carried out to determine cell viability, cell proliferation, and cytotoxicity, respectively. Data are mean and standard deviation (SD) of 3 independent experiments. […] Representative immunofluorescence microscopy (400× magnification) of cells immunostained for DENV-2 NS3 (green) and DAPI for nuclei (blue). […] Plaque-forming assay of viral progeny production (plaque forming unit, PFU/ml) in culture supernatants of cells in panel C (D). Data are mean and SI) of 2 independent experiments. *P<0.05.
Cells treated with the indicated doses of PCZ were analyzed by use of the Cytotoxicity Detection Kit (LDH) (Roche), Cell Proliferation Kit (XTT) (Roche) and ALAMARBLUE® Cell Viability Assay (Life Technologies). Briefly, cells treated with PCZ at the indicated doses for overnight underwent XTT, LDH and ALAMARBLUE® assay. Sample absorbance from XTT and LDH assays was determined by use of an ELISA reader (Molecular Devices) at 450 and 490 nm, respectively. For AlamarBlue viability assay, fluorescence intensity was monitored at 570 nm excitation and 585 nm emission by use of a microplate reader (Molecular Devices).

Substance: prochlorperazine dimethanesulfonate [PCZ-Novamin]
- cell viability, cell proliferation, cytotoxicity: did not significantly affect cell viability, cell proliferation, or cytotoxicity
